Measurements reported in PubChem BioAssay (NCI).
Some results for these compounds are left out of this collection, so the calls shown say nothing about other tests.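 Briefly, cells in 96-well plates were exposed to five compound concentrations for 48 h, and endpoints were estimated by linear interpolation. At the TGI there is no net growth.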

Tests used:
Experiment in all cases: NCI anticancer screen, dose series, 48 h
786-0 renal = tested on: 786-0 renal
A498 renal = tested on: A498 renal
A549 NSCLC = tested on: A549 NSCLC
ACHN renal = tested on: ACHN renal
BT-549 breast = tested on: BT-549 breast
CAKI-1 renal = tested on: CAKI-1 renal
CCRF-CEM leukemia = tested on: CCRF-CEM leukemia
COLO 205 colon = tested on: COLO 205 colon
DU-145 prostate = tested on: DU-145 prostate
EKVX NSCLC = tested on: EKVX NSCLC
HCT-116 colon = tested on: HCT-116 colon
HCT-15 colon = tested on: HCT-15 colon
HL-60(TB) leukemia = tested on: HL-60(TB) leukemia
HOP-62 NSCLC = tested on: HOP-62 NSCLC
HOP-92 NSCLC = tested on: HOP-92 NSCLC
HS 578T breast = tested on: HS 578T breast
HT29 colon = tested on: HT29 colon
IGROV1 ovarian = tested on: IGROV1 ovarian
K-562 leukemia = tested on: K-562 leukemia
LOX IMVI melanoma = tested on: LOX IMVI melanoma
M14 melanoma = tested on: M14 melanoma
MALME-3M melanoma = tested on: MALME-3M melanoma
MCF7 breast = tested on: MCF7 breast
MDA-MB-231 breast = tested on: MDA-MB-231 breast
MDA-MB-435 = tested on: MDA-MB-435
MDA-N = tested on: MDA-N
MOLT-4 leukemia = tested on: MOLT-4 leukemia
NCI-H226 lung = tested on: NCI-H226 lung
NCI-H23 lung = tested on: NCI-H23 lung
NCI-H322M lung = tested on: NCI-H322M lung
NCI-H522 lung = tested on: NCI-H522 lung
NCI/ADR-RES ovarian = tested on: NCI/ADR-RES ovarian
OVCAR-3 ovarian = tested on: OVCAR-3 ovarian
OVCAR-4 ovarian = tested on: OVCAR-4 ovarian
OVCAR-5 ovarian = tested on: OVCAR-5 ovarian
OVCAR-8 ovarian = tested on: OVCAR-8 ovarian
PC-3 prostate = tested on: PC-3 prostate
RPMI-8226 leukemia = tested on: RPMI-8226 leukemia
RXF 393 renal = tested on: RXF 393 renal
SF-268 CNS = tested on: SF-268 CNS
SF-295 CNS = tested on: SF-295 CNS
SF-539 CNS = tested on: SF-539 CNS
SK-MEL-2 melanoma = tested on: SK-MEL-2 melanoma
SK-MEL-28 melanoma = tested on: SK-MEL-28 melanoma
SK-MEL-5 melanoma = tested on: SK-MEL-5 melanoma
SK-OV-3 ovarian = tested on: SK-OV-3 ovarian
SN12C renal = tested on: SN12C renal
SNB-19 CNS = tested on: SNB-19 CNS
SNB-75 CNS = tested on: SNB-75 CNS
SR leukemia = tested on: SR leukemia
T-47D breast = tested on: T-47D breast
TK-10 renal = tested on: TK-10 renal
U251 CNS = tested on: U251 CNS
UACC-257 melanoma = tested on: UACC-257 melanoma
UACC-62 melanoma = tested on: UACC-62 melanoma
UO-31 renal = tested on: UO-31 renal

Measured: TGI

O=C(OCCN1C2CCCC1CCC2)C(O)(c1ccccc1)c1ccccc1
> 100 µM: all assays above
